{"source": "paper PMC8584931", "about": "(International Journal of Molecular Sciences, 2021)", "tested_on": "HT-29 cells", "assay": "Combination cytotoxicity, MTT and SRB assays", "settings": "48 h, 0.25, 0.5, 1, 2 and 4 times IV", "data": [{"smiles": "O=c1[nH]cc(F)c(=O)[nH]1", "note": "[5-FU, 5-fluorouracil]", "values": [{"measurement": "Cell viability and protein content of HT-29 cells, alone and combined with 5-FU (in words)", "value": "did not show significant modulation of the viability"}]}]}
